Measurements as given in publication PMC11582101, “Unlocking the potential: unveiling tyrphostins with Michael-reactive cyanoacrylate motif as promising inhibitors of human 5-lipoxygenase” (Pflugers Archiv, 2024).

Test system: 15-LO
Assay: 15-HETE formation in intact PMNL
Conditions: 20 µM AA, 2.5 µM A23187, (95% CI), n = 3–6

Compound: N#CC(C#N)=Cc1ccccc1
- IC50 for inhibition of 15-HETE formation, PMNL: no inhibition

Some compounds may have been tested in ways that are not shown here.
